# Measured values as given in PMC8064294 (Journal of medicinal chemistry, 2020).
# Biological target: T1, ULK1 (NanoLuc-ULK1 fusion) (Homo sapiens, UniProt O75385)
# T1 sequence (O75385 1-1050): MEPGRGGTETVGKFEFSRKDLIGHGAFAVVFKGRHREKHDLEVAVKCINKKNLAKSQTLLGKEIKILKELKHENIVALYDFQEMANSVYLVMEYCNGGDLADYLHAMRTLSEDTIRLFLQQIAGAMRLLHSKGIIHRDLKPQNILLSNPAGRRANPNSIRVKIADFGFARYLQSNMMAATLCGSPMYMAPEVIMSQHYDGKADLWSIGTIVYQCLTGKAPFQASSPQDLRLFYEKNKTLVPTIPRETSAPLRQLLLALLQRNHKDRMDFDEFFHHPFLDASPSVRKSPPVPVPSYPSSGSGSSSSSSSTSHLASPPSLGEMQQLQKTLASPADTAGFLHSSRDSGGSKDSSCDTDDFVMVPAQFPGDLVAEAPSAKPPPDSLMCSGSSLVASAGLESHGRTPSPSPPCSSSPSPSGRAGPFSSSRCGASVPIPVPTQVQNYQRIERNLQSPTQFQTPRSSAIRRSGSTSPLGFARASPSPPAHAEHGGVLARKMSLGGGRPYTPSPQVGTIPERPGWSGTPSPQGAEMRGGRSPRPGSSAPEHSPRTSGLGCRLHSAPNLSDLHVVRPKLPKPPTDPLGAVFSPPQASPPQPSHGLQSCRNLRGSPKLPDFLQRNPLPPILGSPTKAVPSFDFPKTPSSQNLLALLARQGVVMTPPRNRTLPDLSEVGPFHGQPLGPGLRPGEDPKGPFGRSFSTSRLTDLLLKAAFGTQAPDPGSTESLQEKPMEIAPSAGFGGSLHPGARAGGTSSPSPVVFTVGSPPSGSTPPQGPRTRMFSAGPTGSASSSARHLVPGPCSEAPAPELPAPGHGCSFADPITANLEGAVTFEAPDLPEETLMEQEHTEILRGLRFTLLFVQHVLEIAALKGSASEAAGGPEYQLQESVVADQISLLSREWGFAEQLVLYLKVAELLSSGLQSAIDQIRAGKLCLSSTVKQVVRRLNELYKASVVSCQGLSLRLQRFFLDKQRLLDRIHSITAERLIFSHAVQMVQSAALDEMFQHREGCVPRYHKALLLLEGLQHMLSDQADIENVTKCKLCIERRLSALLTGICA
# Assay: ULK1 NanoBRET intracellular kinase target engagement assay in HEK293T cells
# Type: cell-based
# Details: HEK293T live cells
compound,measurement,value
"FC(F)(F)c1cnc(Nc2ccc3nc[nH]c3c2)nc1NC1CC1 [compound 7, N^2-(1H-Benzo[d]imidazol-6-yl)-N^4-cyclopropyl-5-(trifluoromethyl)pyrimidine-2,4-diamine]",ULK1 NanoBRET IC50 (range in words),sub-micromolar range
